{"source": "patent US20230026808A1", "about": "“COMPOUNDS, COMPOSITIONS, AND METHODS FOR TREATING ISCHEMIA-REPERFUSION INJURY AND/OR LUNG INJURY” (YALE UNIVERSITY, priority 2019, published 2023)", "note": "Like-named read-outs stand apart in the source and are kept apart here.", "data": [{"smiles": "Cc1ccc(Nc2nccc(N(C)c3ccc4c(C)n(C)nc4c3)n2)cc1S(N)(=O)=O", "note": "[pazopanib, 5-((4-((2,3-dimethyl-2H-indazol-6-yl)(methyl)amino)pyrimidin-2-yl)amino)-2-methylbenzenesulfonamide]", "values": [{"measurement": "margin of safety", "setting": "2-week monkey study vs 20 mg clinical starting dose", "value": 11.2, "unit": "fold"}, {"measurement": "margin of safety", "setting": "monkey, 14 days, IV 20 minute infusion, clinical dose 20 mg/day or 0.29 mg/kg", "value": 11.2, "unit": "X"}]}]}
